{
  "source": "patent US10526581B2",
  "about": "“Modulation of cardiac stem-progenitor cell differentiation, assays and uses thereof” (priority 2013, dated 2020)",
  "molecules": {"B1": {"name": "BMP-2: cardiopoietic growth factor (protein, UniProt P12643 283-396, looked up)", "Bone morphogenetic protein 2": "QAKHKQRKRLKSSCKRHPLYVDFSDVGWNDWIVAPPGYHAFYCHGECPFPLADHLNSTNHAIVQTLVNSVNSKIPKACCVPTELSAISMLYLDENEKVVLKNYQDMVVEGCGCR"}},
  "assay_type_in_all_cases": "cell-based, rat",
  "key": {"c-kit^pos CD45^neg eCSCs [1]": {"system": "c-kit^pos CD45^neg eCSCs", "experiment": "clonogenic assay of c-kit^pos eCSCs", "conditions": "in vitro", "experimental": "(§1) c-kit^posCD45^neg eCSCs express functional receptors for these cardiopoetic factors (cGFs) (FIG. 4). In particular, both TGF-β1 and Wnt receptors are activated and signal to their known downstream effectors in eCSCs isolated from ISO injured hearts (FIG. 4). We thus directly tested in vitro the growth response of freshly isolated c-kit^pos CD45^neg eCSCs grown in limited serum (1% ESQ-FBS) to individual cGFs. Dose-response curves were performed to determine the optimal concentration for each cGF (FIG. 13A-H). […] These effects were confirmed by qRT-PCR of cardiomyocyte-specific mRNAs (FIG. 5).\n(§2) Wnt/β-catenin and TGF-β/SMADs signaling play critical roles in the regulation of embryonic as well as different tissue-specific stem cell fate (21-23). In particular, these two signaling pathways have distinct functions in mammalian cardiogenesis (24-27). Thus, to extend our findings we have tested through gain and loss of function experiments the effects of Wnt/β-catenin and TGF-β/SMADs signaling pathways on c-kit^pos eCSC fate in vitro. […] To disrupt Wnt/ρ-catenin, c-kit^pos eCSCs were either treated with Dickkopf-1 (Dkk-1), an inhibitor of canonical Wnts or transfected with a specific short hairpin RNA for β-catenin (β-cat^shRNA). […]"}, "c-kit^pos CD45^neg eCSCs [2]": {"system": "c-kit^pos CD45^neg eCSCs", "experiment": "BrdU incorporation proliferation assay of c-kit^pos eCSCs with cardiopoietic growth factors and Wnt or TGF-β modulators", "conditions": "in vitro", "experimental": "as §1, §2"}, "c-kit^pos eCSCs": {"system": "c-kit^pos eCSCs", "experiment": "cardiomyocyte differentiation of c-kit^pos eCSCs in differentiation medium (cTnI^pos cells, qRT-PCR)", "experimental": "FIGS. 4(A-E). Adult myocardium produces cardiopoietic factors acting on the specific receptors of c-kit^pos eCSCs in vivo (A-C) Effect of growth factors and cytokines on c-kit^pos eCSC proliferation (A), clonogenicity (B), and cardiomyocyte differentiation (C) which was measured as percentage of cardiac troponin I (cTnI) expressing cells after 14 days in culture. *P<0.05 vs. CTRL. (D) Representative immunostaining of cardiac troponin I (cTnI; red) positive eCSC-derived cells following supplementation with IGF-1 (left panel) or TGF-β1 (right panel). Nuclei were identified by DAPI in blue. Bar=50 μm. (E) qRT-PCR analysis showing the fold change of c-kit, Oct-4, Gata-4, Nkx2.5 and cTnI mRNAs following 14 days in base differentiation medium (CTRL) and base differentiation medium supplemented with IGF-1 or TGF-β1, compared to cloned c-kit^pos eCSCs at P0 (Base). *P<0.05 vs. CTRL. †P<0.05 vs. IGF-1. Data are Mean±SD of n=6/condition. […]\nTo evaluate the role of TGF-β/SMAD signaling, BMP-2, BMP-4 and TGF-β1 were added to cultured c-kit^pos eCSCs.\nRNA was extracted using Qiagen RNeasy columns and was reverse transcribed using first strand cDNA synthesis with random or oligo-dT primers (Applied Biosystems). Residual amounts of DNA were removed by on-column DNase treatment using the RNase-Free DNase Set (Qiagen) during the RNeasy procedure. Quantitative RT-PCR was performed using SYBR Green (BioRad) on a MyIQ thermocycler (BioRad). The PCR-reaction included 2 μl of template cDNA, and 300 nM forward and reverse primers. PCR efficiency was evaluated by using a standard curve of five serial dilution points. Data were analysed using BioRad IQ software and mRNA was normalized to the housekeeping gene, GAPDH. All reactions were carried out in triplicate."}},
  "note": "Entries after “also recorded” stand apart in the source; their conditions may differ.",
  "data": [
    {"molecule": "B1", "values": [
      {"measurement": "c-kit^pos eCSC clonogenicity", "setting": "c-kit^pos CD45^neg eCSCs [1]", "value": "did not affect; also recorded: Neither BMP-2, BMP-4, TGF-β1 supplementation nor Smad2 knock-down affected"},
      {"measurement": "c-kit^pos eCSC proliferation (growth, expansion)", "setting": "c-kit^pos CD45^neg eCSCs [2]", "value": "did not affect; also recorded: Neither BMP-2, BMP-4, TGF-β1 supplementation nor Smad2 knock-down affected"},
      {"measurement": "differentiation of eCSCs into the cardiomyocyte lineage (myocyte specification)", "setting": "c-kit^pos eCSCs; differentiation medium", "value": "promoted differentiation"},
      {"measurement": "number of myocyte differentiating (cTnI^pos) cells", "setting": "c-kit^pos eCSCs; differentiation medium (LIF withdrawal)", "value": "significantly induced"},
      {"measurement": "transcription of myogenic lineage markers", "setting": "c-kit^pos eCSCs; differentiation medium (LIF withdrawal), qRT-PCR", "value": "significantly induced"}
    ]}
  ]
}
